{"source": "ChEMBL document CHEMBL1142385", "about": "“Nitro as a novel zinc-binding group in the inhibition of carboxypeptidase A” (Bioorg Med Chem, 2008)", "target": "T1, Carboxypeptidase A1 (Homo sapiens, UniProt P15085)", "T1 sequence (P15085 whole entry)": "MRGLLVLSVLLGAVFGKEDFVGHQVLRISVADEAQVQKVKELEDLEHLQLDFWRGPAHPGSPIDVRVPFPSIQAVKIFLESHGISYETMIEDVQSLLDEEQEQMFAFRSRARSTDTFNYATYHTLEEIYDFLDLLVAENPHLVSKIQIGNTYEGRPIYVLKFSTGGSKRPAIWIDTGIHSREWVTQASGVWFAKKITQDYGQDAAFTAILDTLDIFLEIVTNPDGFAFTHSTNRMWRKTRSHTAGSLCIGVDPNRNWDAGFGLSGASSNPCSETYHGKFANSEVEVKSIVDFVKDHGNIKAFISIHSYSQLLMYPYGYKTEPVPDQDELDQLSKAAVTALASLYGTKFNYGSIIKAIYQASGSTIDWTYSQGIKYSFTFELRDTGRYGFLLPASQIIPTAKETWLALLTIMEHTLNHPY", "experiment": "Inhibition of CPA"}
{"compound": "O=C(O)[C@H](Cc1ccccc1)C[N+](=O)[O-]", "values": [{"measurement": "Ki", "result": 0.15, "unit": "µM"}]}
